Experimental data reported in patent US8865750B2, “Small molecule inhibitors of RGS proteins” (The Regents of The University of Michigan, priority 2011, dated 2014).
Where two headings read alike, the source gives them in different places.

By UniProt entry, the sequences of proteins in these tests, tags left out. Chains listed by the source or under a name are the forms on record and can include a tag or linker. Residues count along the entry.
UniProt P57771, other isoform, or with tags, fused parts or gaps: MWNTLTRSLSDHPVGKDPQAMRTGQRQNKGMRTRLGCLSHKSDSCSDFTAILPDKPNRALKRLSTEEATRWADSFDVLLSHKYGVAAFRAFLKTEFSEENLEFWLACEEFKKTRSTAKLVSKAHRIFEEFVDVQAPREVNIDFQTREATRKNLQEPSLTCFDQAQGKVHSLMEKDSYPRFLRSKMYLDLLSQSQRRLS
UniProt P00784, 134-345: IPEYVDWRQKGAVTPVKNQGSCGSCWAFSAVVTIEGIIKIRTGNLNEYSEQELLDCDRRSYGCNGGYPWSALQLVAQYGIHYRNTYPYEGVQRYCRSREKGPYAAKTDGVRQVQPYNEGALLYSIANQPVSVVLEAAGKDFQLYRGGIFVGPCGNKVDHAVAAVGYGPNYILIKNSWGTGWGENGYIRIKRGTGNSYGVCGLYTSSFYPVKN
UniProt P49841, whole entry, species assumed: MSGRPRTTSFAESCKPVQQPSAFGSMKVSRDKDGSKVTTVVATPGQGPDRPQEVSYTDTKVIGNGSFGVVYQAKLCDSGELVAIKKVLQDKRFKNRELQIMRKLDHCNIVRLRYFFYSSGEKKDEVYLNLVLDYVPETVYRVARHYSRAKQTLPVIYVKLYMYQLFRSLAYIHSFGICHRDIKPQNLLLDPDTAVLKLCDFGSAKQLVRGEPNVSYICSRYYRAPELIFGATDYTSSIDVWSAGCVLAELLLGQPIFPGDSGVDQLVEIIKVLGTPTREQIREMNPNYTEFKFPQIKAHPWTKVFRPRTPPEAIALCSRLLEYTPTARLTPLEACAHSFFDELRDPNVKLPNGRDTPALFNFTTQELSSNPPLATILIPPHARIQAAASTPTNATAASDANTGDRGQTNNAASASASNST
UniProt O15492, whole entry, species assumed: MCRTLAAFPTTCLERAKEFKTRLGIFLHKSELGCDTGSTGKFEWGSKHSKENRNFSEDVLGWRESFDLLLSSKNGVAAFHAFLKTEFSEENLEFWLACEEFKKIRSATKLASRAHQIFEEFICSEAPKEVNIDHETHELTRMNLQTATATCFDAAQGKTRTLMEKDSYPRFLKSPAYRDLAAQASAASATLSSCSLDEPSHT
UniProt Q01970, whole entry, species assumed: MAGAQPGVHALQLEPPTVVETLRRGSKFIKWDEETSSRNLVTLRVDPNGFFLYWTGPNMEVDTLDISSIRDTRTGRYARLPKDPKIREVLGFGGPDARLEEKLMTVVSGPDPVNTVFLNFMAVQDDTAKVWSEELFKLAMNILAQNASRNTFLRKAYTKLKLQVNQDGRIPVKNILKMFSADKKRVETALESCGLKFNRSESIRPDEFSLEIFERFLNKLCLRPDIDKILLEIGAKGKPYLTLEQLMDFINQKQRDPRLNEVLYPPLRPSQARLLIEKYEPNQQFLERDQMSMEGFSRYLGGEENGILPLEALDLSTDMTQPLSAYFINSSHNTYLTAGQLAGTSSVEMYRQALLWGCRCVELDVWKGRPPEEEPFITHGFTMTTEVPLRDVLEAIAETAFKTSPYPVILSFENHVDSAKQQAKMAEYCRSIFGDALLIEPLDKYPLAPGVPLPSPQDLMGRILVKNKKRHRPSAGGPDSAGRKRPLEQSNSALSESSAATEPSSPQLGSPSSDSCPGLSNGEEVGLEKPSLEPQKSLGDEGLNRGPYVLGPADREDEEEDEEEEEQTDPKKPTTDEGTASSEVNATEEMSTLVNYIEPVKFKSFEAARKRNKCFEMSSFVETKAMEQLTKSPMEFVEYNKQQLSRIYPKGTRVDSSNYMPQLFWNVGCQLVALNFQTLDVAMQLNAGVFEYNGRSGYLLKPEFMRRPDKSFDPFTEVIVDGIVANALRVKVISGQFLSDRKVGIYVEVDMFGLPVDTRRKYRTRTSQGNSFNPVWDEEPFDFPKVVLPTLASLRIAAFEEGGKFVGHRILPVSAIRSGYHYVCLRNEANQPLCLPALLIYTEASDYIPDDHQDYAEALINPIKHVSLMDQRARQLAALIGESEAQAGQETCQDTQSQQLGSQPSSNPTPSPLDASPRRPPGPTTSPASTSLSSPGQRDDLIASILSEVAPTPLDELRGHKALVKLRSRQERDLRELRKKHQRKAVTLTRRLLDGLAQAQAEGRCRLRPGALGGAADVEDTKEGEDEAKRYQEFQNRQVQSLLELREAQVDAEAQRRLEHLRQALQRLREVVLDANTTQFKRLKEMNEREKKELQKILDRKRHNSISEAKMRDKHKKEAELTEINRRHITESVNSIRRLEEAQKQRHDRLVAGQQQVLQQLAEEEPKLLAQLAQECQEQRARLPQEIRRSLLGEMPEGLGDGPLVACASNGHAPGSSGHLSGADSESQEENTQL
UniProt P49802, whole entry, species assumed: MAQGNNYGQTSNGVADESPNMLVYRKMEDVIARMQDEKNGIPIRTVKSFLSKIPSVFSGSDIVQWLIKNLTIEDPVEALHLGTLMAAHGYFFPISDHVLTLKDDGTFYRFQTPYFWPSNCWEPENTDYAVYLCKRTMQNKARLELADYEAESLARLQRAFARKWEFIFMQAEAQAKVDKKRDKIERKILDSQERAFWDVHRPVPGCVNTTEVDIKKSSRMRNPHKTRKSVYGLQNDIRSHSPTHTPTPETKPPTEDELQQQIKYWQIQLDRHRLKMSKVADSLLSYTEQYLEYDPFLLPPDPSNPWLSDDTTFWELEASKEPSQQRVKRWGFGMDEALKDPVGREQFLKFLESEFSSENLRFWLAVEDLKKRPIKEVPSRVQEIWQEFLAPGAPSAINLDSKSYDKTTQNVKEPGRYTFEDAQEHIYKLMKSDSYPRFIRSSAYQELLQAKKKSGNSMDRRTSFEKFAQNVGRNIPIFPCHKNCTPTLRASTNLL
UniProt P49795, whole entry, species assumed: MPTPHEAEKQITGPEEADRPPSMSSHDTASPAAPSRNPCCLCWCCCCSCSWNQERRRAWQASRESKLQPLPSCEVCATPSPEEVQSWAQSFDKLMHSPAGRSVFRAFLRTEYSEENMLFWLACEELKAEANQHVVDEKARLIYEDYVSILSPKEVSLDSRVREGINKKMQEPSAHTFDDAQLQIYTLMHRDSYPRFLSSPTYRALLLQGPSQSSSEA

Experiments:
RGS8 = RGS8 (Homo sapiens (Human), UniProt P57771); experiment: FCPIA: Gαo binding to RGS8
Protocol: (§1) FCPIA Dose Response and Reversibility Experiments:
(§2) FCPIA was performed as previously described using chemically biotinylated RGS proteins and AlexaFluor-532 labeled Gα0. (Roman et al., J Biomol Screen, 2009; Blazer, L. L., et al., Mol Pharmacol).
FCPIA Dose Response Experiments:
FCPIA was performed as previously described using chemicallybiotinylated RGS proteins and AlexaFluor-532 labeled Gα0. (Blazer, L. L., et al., Mol Pharmacol; Roman et al., J Biomol Screen, 2009).
(§3) RGS/Gα binding studies: The binding of biotinylated RGS proteins to fluorescently labeled Gαo was measured by Flow Cytometry Protein Interaction Assay (FCPIA) method previously described (Roman et al., (2009) J Biomol Screen.; Blazer et al., (2010) Curr Protoc Cytom Chapter 13, Unit 13 11 11-15; Roman et al., (2007) Mol Pharmacol 71, 169-175) as were the measures of compound reversibility.

papain = papain (Carica papaya (Papaya), UniProt P00784); format: biochemical; settings: Table 7
Excerpt: Papain (Sigma-Aldrich, St. Louis, Mo.) activity was monitored by the increase in fluorescence caused by the liberation of fluorescein from autoquenched fluorescein-conjugated casein (AnaSpec, San Jose, Calif.).

GSK-3β [1] = molecular target: T1, GSK-3β (Homo sapiens (Human), UniProt P49841); experiment: GSK-3β inhibition (literature study); format: biochemical; settings: with literature GSK-3β IC50
RGS16 = RGS16 (Homo sapiens (Human), UniProt O15492); experiment: FCPIA: Gαo binding to RGS16; settings: Table 7
Protocol: as §1, §2, §3

GSK-3β [2] = molecular target: T1, GSK-3β; experiment: GSK-3β radiometric inhibition assay; format: biochemical
PLCβ3 = PLCβ3 (Homo sapiens (Human), UniProt Q01970); experiment: PLCβ inhibition assay; format: biochemical; settings: Table 7
Protocol: PLCβ inhibition assay: Lipid vesicles containing 200 μM phosphatidylethanolamine, 50 μM PIP2 (Avanti Polar Lipids), and ˜4000-8000 cpm [^3H]-labeled PIP2 (Perkin-Elmer) per assay were generated by combining the lipids in a borosilicate glass tube and drying the mixture under a stream of nitrogen. Dried lipids were resuspended in 50 mM HEPES pH 7, 80 mM KCl, 2 mM EGTA and 1 mM DTT using a bath sonicator. Activity assays were performed in a final volume of 60 μL containing 3 ng mL^−1 PLCβ3, 50 mM HEPES pH 7, 80 mM KCl, 15 mM NaCl, 0.83 mM MgCl2, 3 mM DTT, 1 mg mL^−1 BSA, 2.5 mM EGTA, 0.2 mM EDTA, 2% DMSO, and enough CaCl2 to give a free concentration of ˜200 nM. […] The reactions were initiated by the addition of liposomes and transferred to 30° C. for 5 min. Reactions were terminated by the addition of 100 μL 10 mg mL^−1 BSA and 200 μL 10% (w/v) ice-cold trichloroacetic acid. The reactions were centrifuged at 8000 g for 5 min to pellet proteins and liposomes, and 200 μL of the resulting supernatant containing free [^3H]-IP3 was measured by scintillation counting (Ghosh et al., (2004) Methods Mol Biol 237, 67-75) GSK-3β inhibition assay: […]

RGS7 = RGS7 (Homo sapiens (Human), UniProt P49802); experiment: FCPIA: Gαo binding to RGS7; settings: Table 7
Protocol: as §1, §2, §3

RGS19 = RGS19 (Homo sapiens (Human), UniProt P49795); experiment: FCPIA: Gαo binding to RGS19; settings: Table 7
Protocol: as §1, §2, §3

SMILES	IC50 (RGS8; Table 2, mean of two independent FCPIA experiments)	Fold Selectivity (RGS4), Papain (papain)	selectivity for RGS4 over GSK-3β (GSK-3β [1])	Fold Selectivity (RGS4), RGS8 (RGS8; Table 7)	Fold Selectivity (RGS4), RGS16 (RGS16)	selectivity for RGS4 over GSK-3β (GSK-3β [2])	Fold Selectivity (RGS4), GSK3β (GSK-3β [2]; Table 7)	IC50 (GSK-3β [2]; Table 7, read-out: IC50 (μM), GSK3β)	IC50 (GSK-3β [2]; radiometric assay, read-out: GSK-3β IC50)	Fold Selectivity (RGS4), PLCβ (PLCβ3)	Fold Selectivity (RGS4), RGS7 (RGS7)	Fold Selectivity (RGS4), RGS19 (RGS19)
Cc1ccc(C2=CC(=O)N(Cc3ccccc3)C2=O)cc1 [CCG-203779]	> 100 µM	–	–	–	–	–	–	–	–	–	–	–
CCCCn1c(=O)sn(CC)c1=O [CCG-203769, 2-ethyl-4-butyl-1,2,4-thiadiazolidine-3,5-dione]	–	>6000	~5000 fold	4650	350	300 fold	320	5.4 µM	5 µM	>6000	>6000	8.2
